Yeast mating assay 2: variants of the scFv Ab-91

Reference: Engelhart et al. 2022, doi:10.1038/s41597-022-01779-4. File: FLAb, binding data.

Target peptide (SARS-CoV-2 spike, HR2 region): PDVDLGDISGINAS

Parent: Ab-91, a human scFv built as VL, the linker GGGGSGGGGSGGGGS, VH. Only the CDRs of the heavy chain vary.
VL: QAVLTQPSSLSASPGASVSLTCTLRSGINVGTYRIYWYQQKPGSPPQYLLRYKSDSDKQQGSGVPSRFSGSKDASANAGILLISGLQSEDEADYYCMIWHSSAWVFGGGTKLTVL
VH: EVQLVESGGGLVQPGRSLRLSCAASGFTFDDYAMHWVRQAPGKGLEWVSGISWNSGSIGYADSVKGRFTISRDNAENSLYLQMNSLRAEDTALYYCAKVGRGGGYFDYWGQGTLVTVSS

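Phage display of a naive human antibody library on the peptide gave the parent. In library AAYL51, one, two or three CDR residues were substituted; doubles and triples were drawn at random. AlphaSeq pools MATa yeast showing the antibodies with MATalpha yeast showing the peptide. Binding brings cells together so that they mate, and sequencing counts the barcode pairs among the diploids. Read counts were normalised to the haploid input and turned into Kd by a linear fit to BCL2-family pairs of known affinity, for each replicate. There are three technical replicates.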

Each variant is given by its three heavy chain CDRs, as the data file delimits them; those of the parent are GFTFDDYAMH, GISWNSGSIGYADSVK, VGRGGGYFDY.
Numbers give log10(Kd / nM), so 0 is 1 nM and 3 is 1 µM. Smaller is tighter.
"nd" means that the variant was in the library but no mating with the target was seen in that replicate; the authors take this as a sign of poor binding, and no number exists.
In this assay the parent's reference entry averaged 1.86; its copy inside this library read 0.88.
Background: pairings of library AAYL51 with three empty control strains gave a value in 21% of cases (median 4.54, 5th percentile 3.26). Values in that range, when seen in few replicates, are hard to tell from nonspecific mating. The control count says in how many pairings with the empty strains this scFv gave a signal.

With GFTMDDYANH / GIPWNSGSIGYADSVK / VGRGGGYFDY the result was nd, nd, nd (controls 0 of 9).
With GFTFDDYAEH / KISWNSGSIGYFDSVK / VGRGGGYFDY the result was nd, nd, nd (controls 1 of 9).
With GFTFDDYAMH / GTSWNSGSIGNADSVK / VGRGGGYFDA the result was nd, nd, nd (controls 0 of 9).
With GFTFDDCFMH / GISWNSGSIGYADSMK / VGRGGGYFDY the result was 5.83, nd, nd (controls 2 of 9).
With CFTFDDYAMH / GISWLSGSIGYADSVK / VGRGGPYFDY the result was nd, nd, nd (controls 1 of 9).
With GFTFDDYAEH / GISWNSGSIGYADQVK / VGRNGGYFDY the result was nd, nd, nd (controls 0 of 9).
With GFTFDDYKMH / CESWNSGSIGYADSVK / VGRGGGYFDY the result was nd, nd, nd (controls 0 of 9).
With GFTFDDYAMH / GISWNSKSIGYADSVK / VGRGGGYFGW the result was nd, nd, nd (controls 1 of 9).
With GFTFDDYAMH / GISWNSGEIGLGDSVK / VGRGGGYFDY the result was 1.60, 1.35, 1.38 (controls 0 of 9).
With GFTFDDPAMH / GISWNSGSIGYADSVK / VGRGFGYFDY the result was nd, nd, nd (controls 0 of 9).
With GFTFDGYAMK / GIRWNSGSIGYADSVK / VGRGGGYFDY the result was 4.56, nd, nd (controls 2 of 9).
With FFTFDDYAMH / GISWNSGSIGYDDSVK / VPRGGGYFDY the result was nd, nd, nd (controls 1 of 9).
With GFTFDDYAMH / GISWNSGSINYADSVK / WGRGGGYFDY the result was nd, nd, 4.93 (controls 2 of 9).
With KFTFKDYAMH / GISWNSGSIGYAQSVK / VGRGGGYFDY the result was 1.50, 1.72, 1.29 (controls 4 of 9).
With GFTFDDYAMH / GISWNSSSIGYHDSVK / VGRGGGMFDY the result was nd, nd, nd (controls 0 of 9).
With GFTFDDYDMH / GISWNSGSIGYADSVK / VGRGGGYFLY the result was nd, 3.90, 4.10 (controls 1 of 9).
With MFTFEDYANH / GISWNSGSIGYADSVK / VGRGGGYFDY the result was nd, 4.99, nd (controls 1 of 9).
With GFTFDDYAAH / GISWYSGSIGYADSVK / VGRGGGYFLY the result was nd, nd, nd (controls 1 of 9).
With GFTFDDYAMH / GISWNSGSIGYADYVK / VSRGGGYFDY the result was nd, nd, 4.10 (controls 1 of 9).
With GFTFDDYAMH / GISWNSGSIGYADSVW / PSRGGGYFDY the result was 3.41, nd, nd (controls 1 of 9).
With GFTFDDSAMH / GISWNSGSIGYADSVK / VGRGGDPFDY the result was 1.60, 1.99, 2.32 (controls 0 of 9).
With DFTFDDYAMH / GISWNSGKIGYADSVK / VGRGGGYTDY the result was nd, nd, nd (controls 0 of 9).
With GFTFDDYAMH / GISWNSGSIGYADSVK / IGIGGGYLDY the result was 1.39, 1.32, 0.85 (controls 4 of 9).
With GFTFDDYAMH / GIWWNSGSPGYADSVK / VGRGGYYFDY the result was 4.02, 6.28, nd (controls 2 of 9).
With GFTVDDYVMH / GISWNSGSIGYADSVK / VGRGGGYFDE the result was 5.63, nd, nd (controls 2 of 9).
With GFTFDDYALH / GISWMSGSIGYADPVK / VGRGGGYFDY the result was 4.59, 4.40, 3.86 (controls 5 of 9).
With GFTFDDYAMQ / GIEWNSGSIGYAESVK / VGRGGGYFDY the result was 4.39, nd, 5.13 (controls 5 of 9).
With GFTQEDYAMH / GESWNSGSIGYADSVK / VGRGGGYFDY the result was 4.38, 4.07, nd (controls 1 of 9).
With GFTFDDYAMH / GISTNSGLIGYADSVK / VGRPGGYFDY the result was 4.44, 5.58, nd (controls 3 of 9).
With GDTFDDYAMH / GISWNSGSIGYADSVK / QGRGCGYFDY the result was 3.98, nd, nd (controls 3 of 9).
With QFTFDDYAMH / GISWNSGSIGYADSVK / VGRGGGYFIY the result was nd, nd, nd (controls 0 of 9).
With GFTVDDYAMH / GISWNSGSIGYADSVC / VGRGGGYFDY the result was 3.68, nd, 4.93 (controls 5 of 9).
With GNTFDDYAYH / GISWNSGSGGYADSVK / VGRGGGYFDY the result was 4.32, nd, nd (controls 3 of 9).

The first 5 variants above that were never detected:

CDR-H1	CDR-H2	CDR-H3	log10 Kd (nM) by replicate	signal with controls
GFTMDDYANH	GIPWNSGSIGYADSVK	VGRGGGYFDY	nd, nd, nd	0/9
GFTFDDYAEH	KISWNSGSIGYFDSVK	VGRGGGYFDY	nd, nd, nd	1/9
GFTFDDYAMH	GTSWNSGSIGNADSVK	VGRGGGYFDA	nd, nd, nd	0/9
CFTFDDYAMH	GISWLSGSIGYADSVK	VGRGGPYFDY	nd, nd, nd	1/9
GFTFDDYAEH	GISWNSGSIGYADQVK	VGRNGGYFDY	nd, nd, nd	0/9